Source: ChEMBL document CHEMBL6134903, “Challenging triple negative breast cancer through HDAC6 selective inhibition: Novel cap-group identification, structure-activity relationships, computational and biological studies” (Eur J Med Chem, 2025)

Biological target: T1, Protein deacetylase HDAC6 (Homo sapiens) (UniProt Q9UBN7)
T1 sequence (whole entry): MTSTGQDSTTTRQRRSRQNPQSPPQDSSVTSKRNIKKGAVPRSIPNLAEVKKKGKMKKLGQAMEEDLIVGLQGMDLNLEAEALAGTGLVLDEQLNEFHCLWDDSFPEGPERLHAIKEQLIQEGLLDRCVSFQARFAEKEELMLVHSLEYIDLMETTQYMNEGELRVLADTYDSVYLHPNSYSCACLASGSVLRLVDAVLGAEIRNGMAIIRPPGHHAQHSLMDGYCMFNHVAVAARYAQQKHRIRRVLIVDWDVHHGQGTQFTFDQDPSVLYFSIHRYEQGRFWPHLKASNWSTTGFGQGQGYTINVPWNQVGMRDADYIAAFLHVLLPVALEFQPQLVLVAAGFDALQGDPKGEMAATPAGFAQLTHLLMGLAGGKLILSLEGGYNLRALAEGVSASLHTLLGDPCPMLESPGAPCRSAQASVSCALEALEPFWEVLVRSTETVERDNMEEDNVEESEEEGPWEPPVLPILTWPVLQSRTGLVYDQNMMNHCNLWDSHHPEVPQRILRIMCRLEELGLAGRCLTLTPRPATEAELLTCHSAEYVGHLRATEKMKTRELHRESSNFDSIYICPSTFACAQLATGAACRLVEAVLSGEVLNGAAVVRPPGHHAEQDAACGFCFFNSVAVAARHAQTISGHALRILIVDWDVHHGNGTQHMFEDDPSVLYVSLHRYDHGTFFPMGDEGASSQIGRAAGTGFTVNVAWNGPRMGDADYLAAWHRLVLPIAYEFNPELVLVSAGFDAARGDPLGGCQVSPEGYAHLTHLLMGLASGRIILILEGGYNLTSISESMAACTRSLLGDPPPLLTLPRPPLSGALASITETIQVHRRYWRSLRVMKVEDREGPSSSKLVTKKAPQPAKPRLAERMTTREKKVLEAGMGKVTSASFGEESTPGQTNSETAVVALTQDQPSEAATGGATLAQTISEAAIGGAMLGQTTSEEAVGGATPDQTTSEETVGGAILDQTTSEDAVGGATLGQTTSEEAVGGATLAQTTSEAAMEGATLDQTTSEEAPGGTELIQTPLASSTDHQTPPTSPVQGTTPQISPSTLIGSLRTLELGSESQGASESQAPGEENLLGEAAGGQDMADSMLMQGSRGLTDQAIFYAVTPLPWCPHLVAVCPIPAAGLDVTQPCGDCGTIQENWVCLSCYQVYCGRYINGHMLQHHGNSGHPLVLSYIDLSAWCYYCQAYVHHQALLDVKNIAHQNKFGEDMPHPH
Settings: HeLa, dose 5-80 nM, time 16.0 hrs

- inhibition: Dose-dependent-effect
SMILES: O=C(/C=C/c1ccc(CN(CCO)CCc2c[nH]c3ccccc23)cc1)NO [DACINOSTAT]
